One experiment has as its target LSD1/CoREST complex (Homo sapiens, UniProt O60341). Put plainly: Inhibition of recombinant human LSD1/CoREST preincubated for 5 mins followed by ART-(N,N-dimethyl-K)-QTARKSTGGKAPRKQLA substrate addition measured after 25 mins by fluorescence assay. The format is protein-complex assay.
Experiment [1] has as its target Amine oxidase [flavin-containing] A (Homo sapiens, UniProt P21397). Put plainly: Inhibition of MAO-A (unknown origin) by luminescence assay. Format: ADME.
Experiment [2] deals with Amine oxidase [flavin-containing] B (Homo sapiens, UniProt P27338). Nature of the experiment: Inhibition of MAO-B (unknown origin) by luminescence assay. The format is ADME.
For another experiment, the system named is MCF7. Nature of the experiment: Antiproliferative activity against human MCF7 cells after 72 hrs by MTS assay. The following applies: MCF7, 72 h. The format is functional, cell-based. In general terms: Tetrazolium dyes change colour on reduction, which living cells bring about.
The test system of the next experiment is Calu-6. Put plainly: Antiproliferative activity against human Calu6 cells after 72 hrs by MTS assay. The following applies: Calu-6, 72 h. Format: functional, cell-based.
The subject of a further experiment is K562. Put plainly: Antiproliferative activity against human K562 cells after 72 hrs by MTS assay. Format: functional, cell-based. The conditions noted are these: K562, 72 h.
Experiment [3] concerns the target Lysine-specific histone demethylase 1A (Homo sapiens) (UniProt O60341). Put plainly: Inhibition of LSD1 in human K562 cells assessed as increase in H3K4me2 expression at 10 uM after 48 hrs by Western lot analysis relative to control. The format is cell-based.
Experiment [4] shares this target. Nature of the experiment: Inhibition of LSD1 in human Calu6 cells assessed as increase in H3K4me2 expression at 10 uM after 48 hrs by Western lot analysis relative to control. The format is cell-based.
The target of experiment [5] is LSD1/CoREST complex (Homo sapiens) (UniProt O60341+Q9UKL0). Nature of the experiment: Inhibition of recombinant human LSD1/CoREST at 500 nM preincubated for 5 mins followed by ART-(N,N-dimethyl-K)-QTARKSTGGKAPRKQLA substrate addition measured after 25 mins by fluorescence assay relative to control.
The target of experiment [6] is Lysine-specific histone demethylase 1A (Homo sapiens) (UniProt O60341). Put plainly: Inhibition of LSD1 in human NCI-H526 cells assessed as increase in H3K4me2 marks at promoter of IGFBP2 at 100 uM after 48 hrs by ChIP-qPCr method. Format: cell-based. A digest of the protocol:
(§1)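 NCI-H526 small cell lung carcinoma cells treated 48 h at 100 µM alongside an untreated control. Cells formaldehyde cross-linked, nuclei sonicated and chromatin enzymatically digested. IP with H3K4me2 antibody (normal rabbit IgG as negative control) on protein G magnetic beads. Purified DNA quantified by TaqMan qPCR at promoter regions; fold change by comparative CT (Livak). SD from three qPCR wells.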

By UniProt entry, the sequences of proteins in these tests, tags left out.
UniProt P21397, whole entry: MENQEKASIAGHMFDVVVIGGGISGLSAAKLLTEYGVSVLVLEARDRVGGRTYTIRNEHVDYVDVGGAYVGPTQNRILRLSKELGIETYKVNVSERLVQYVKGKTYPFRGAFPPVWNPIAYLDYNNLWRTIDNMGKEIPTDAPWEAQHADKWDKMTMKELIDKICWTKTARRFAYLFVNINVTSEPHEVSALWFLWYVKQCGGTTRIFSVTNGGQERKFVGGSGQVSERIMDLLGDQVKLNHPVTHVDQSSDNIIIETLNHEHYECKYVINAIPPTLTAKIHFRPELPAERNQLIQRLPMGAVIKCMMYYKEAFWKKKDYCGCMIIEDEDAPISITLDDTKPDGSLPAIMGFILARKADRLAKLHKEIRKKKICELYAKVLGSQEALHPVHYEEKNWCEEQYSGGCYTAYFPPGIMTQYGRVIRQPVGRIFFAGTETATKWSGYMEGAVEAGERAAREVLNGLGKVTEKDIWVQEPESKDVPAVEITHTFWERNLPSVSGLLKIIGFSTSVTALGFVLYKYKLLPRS
UniProt P27338, whole entry: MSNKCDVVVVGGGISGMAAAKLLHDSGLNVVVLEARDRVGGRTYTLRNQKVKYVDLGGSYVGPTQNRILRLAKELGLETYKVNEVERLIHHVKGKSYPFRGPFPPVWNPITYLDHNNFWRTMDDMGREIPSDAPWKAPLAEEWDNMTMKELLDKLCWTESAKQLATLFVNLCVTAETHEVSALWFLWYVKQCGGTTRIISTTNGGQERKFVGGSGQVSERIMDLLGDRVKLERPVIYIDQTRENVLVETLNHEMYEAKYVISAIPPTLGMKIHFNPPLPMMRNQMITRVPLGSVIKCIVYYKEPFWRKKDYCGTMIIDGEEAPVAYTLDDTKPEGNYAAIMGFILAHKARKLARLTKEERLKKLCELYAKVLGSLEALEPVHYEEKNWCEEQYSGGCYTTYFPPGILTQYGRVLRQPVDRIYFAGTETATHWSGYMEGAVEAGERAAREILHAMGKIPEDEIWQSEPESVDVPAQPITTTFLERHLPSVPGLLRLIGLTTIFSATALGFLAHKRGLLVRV
UniProt Q9UKL0, whole entry, looked up: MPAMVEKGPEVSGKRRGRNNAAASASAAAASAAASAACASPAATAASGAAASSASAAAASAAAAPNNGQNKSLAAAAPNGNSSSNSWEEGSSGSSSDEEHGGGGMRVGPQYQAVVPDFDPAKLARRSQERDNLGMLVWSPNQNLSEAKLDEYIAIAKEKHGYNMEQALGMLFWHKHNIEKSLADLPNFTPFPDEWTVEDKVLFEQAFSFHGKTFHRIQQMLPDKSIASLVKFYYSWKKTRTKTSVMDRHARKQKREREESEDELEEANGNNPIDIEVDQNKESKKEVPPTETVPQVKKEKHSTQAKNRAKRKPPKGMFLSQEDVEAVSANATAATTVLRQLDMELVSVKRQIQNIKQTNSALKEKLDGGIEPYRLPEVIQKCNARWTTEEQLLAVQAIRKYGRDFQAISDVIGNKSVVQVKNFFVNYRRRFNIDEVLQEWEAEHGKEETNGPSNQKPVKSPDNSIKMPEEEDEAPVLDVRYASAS

The target is the same in experiment [7]. Put plainly: Inhibition of LSD1 in human NCI-H526 cells assessed as increase in H3K4me2 marks at promoter of FEZ1 at 100 uM after 48 hrs by ChIP-qPCr method. The format is cell-based. A digest of the protocol:
as §1

pIC50: −log10 of the molar value. Active and inactive are the calls of the source. The rule behind the calls is not given here.

As a reminder, the pIC50 is −log10 of the IC50, conventionally taken in molar units. Usually inhibition stands for the relative decrease from the control value, in per cent.

In the case of `CSCC[C@H](NC(=O)[C@H](C)NC(=O)[C@H](CCCNC(=N)N)NC(=O)[C@H](C)N)C(=O)N[C@H]1CCCCNC(=O)CC[C@@H](C(=O)N[C@H](C(=O)NCC(=O)NCC(=O)N[C@@H](CCCCN)C(=O)N[C@@H](C)C(=O)N2CCC[C@H]2C(=O)N[C@@H](CCCNC(=N)N)C(=O)N[C@@H](CCCCN)C(=O)N[C@@H](CCC(N)=O)C(=O)N[C@@H](CC(C)C)C(=O)N[C@@H](C)C(N)=O)[C@@H](C)O)NC(=O)[C@H](CCCCN)NC(=O)[C@H](CCCNC(=N)N)NC(=O)[C@H](C)NC(=O)[C@H]([C@@H](C)O)NC1=O`, the pIC50 on LSD1/CoREST complex was 6.87; in [1], under 4.00; in [2], under 4.00; in the experiment with MCF7, 3.25; in the experiment with Calu-6, 3.23; with K562, 3.44. For the same molecule, in experiment [3], the fold change (FC) is 2.4. For the same molecule, in experiment [4], the result was inactive. Besides, the inhibition in experiment [5] was found to be 99.2%.
For the molecule `CSCC[C@H](NC(=O)[C@@H](NC(=O)[C@H](CCCNC(=N)N)NC(=O)[C@H](C)N)[C@@H](C)O)C(=O)N[C@H]1CCCCNC(=O)CC[C@@H](C(=O)N[C@@H](C)C(=O)NCC(=O)NCC(=O)N[C@@H](CCCCN)C(=O)N[C@@H](C)C(=O)N2CCC[C@H]2C(=O)N[C@@H](CCCNC(=N)N)C(=O)N[C@@H](CCCCN)C(=O)N[C@@H](CCC(N)=O)C(=O)N[C@@H](CC(C)C)C(=O)N[C@@H](C)C(N)=O)NC(=O)[C@H](CCCCN)NC(=O)[C@H](CCCNC(=N)N)NC(=O)[C@H](C)NC(=O)[C@H]([C@@H](C)O)NC1=O`, the pIC50 was 6.97 at LSD1/CoREST complex, 3.77 in the experiment with MCF7, 4.03 with Calu-6 and 3.44 in the experiment with K562. The fold change (FC) in experiment [3] fell in the range of 2 to 17. Besides, the inhibition entry in experiment [6] and in experiment [7] was “inactive” in each case.
